Assays:
HEK293 = assay: Selectivity ratio of Ki for human opioid delta receptor expressed in HEK293 cells to Ki for human opioid kappa receptor expressed in CHO cells; format: cell-based
CHO = assay: Selectivity ratio of Ki for human opioid mu receptor expressed in CHO cells to Ki for human opioid kappa receptor expressed in CHO cells; format: cell-based
Striatum = assay: Ratio of drug uptake in striatum to cerebellum in rat at 1 ug/kg, iv measured after 40 mins by LC/MS/MS analysis; conditions: in vivo, 0.001 mg/kg

Row | SMILES | Ratio Ki (HEK293) | Ratio Ki (CHO) | Ratio (Striatum)
1 | CC1(C)CN(Cc2ccc(Oc3ccc(C(N)=O)cn3)cc2)[C@@H]1c1ccccc1 | > 475 | 41 | 0.3
2 | CC1(C)CN(Cc2ccc(Oc3ccc(C(N)=O)cn3)cc2)C1c1ccccc1 (racemic) | > 350 | 37 | 
3 | CC1(C)CN(Cc2ccc(Oc3ccc(C(N)=O)cn3)cc2)[C@H]1c1ccccc1 | > 19 | 4 | 
